Experimental data: patent US20160244745A1 (published 2016)

Columns and labels:
Test in all cases: binding titration
[1] = molecular target: GP2_cMet-P7-1#
[2] = molecular target: GP2_cMet-P5-1#
[3] = molecular target: GP2_cMet-5#
[4] = molecular target: GP2_cMet-1.2.5#
[5] = molecular target: GP2_cMet-1.2.6#
[6] = molecular target: GP2_cMet-1.2.10#

B1: cMet (receptor)
chain: ECKEALAKSEMNVNMKYQLPNFTAETPIQNVILHEHHIFLGATNYIYVLNEEDLQKVAEYKTGPVLEHPDCFPCQDCSSKANLSGGVWKDNINMALVVDTYYDDQLISCGSVNRGTCQRHVFPHNHTADIQSEVHCIFSPQIEEPSQCPDCVVSALGAKVLSSVKDRFINFFVGNTINSSYFPDHPLHSISVRRLKETKDGFMFLTDQSYIDVLPEFRDSYPIKYVHAFESNNFIYFLTVQRETLDAQTFHTRIIRFCSINSGLHSYMEMPLECILTEKRKKRSTKKEVFNILQAAYVSKPGAQLARQIGASLNDDILFGVFAQSKPDSAEPMDRSAMCAFPIKYVNDFFNKIVNKNNVRCLQHFYGPNHEHCFNRTLLRNSSGCEARRDEYRTEFTTALQRVDLFMGQFSEVLLTSISTFIKGDLTIANLGTSEGRFMQVVVSRSGPSTPHVNFLLDSHPVSPEVIVEHTLNQNGYTLVITGKKITKIPLNGLGCRHFQSCSQCLSAPPFVQCGWCHDKCVRSEECLSGTWTQQICLPAIYKVFPNSAPLEGGTRLTICGWDFGFRRNNKFDLKKTRVLLGNESCTLTLSESTMNTLKCTVGPAMNKHFNMSIIISNGHGTTQYSTFSYVDPVITSISPKYGPMAGGTLLTLTGNYLNSGNSRHISIGGKTCTLKSVSNSILECYTPAQTISTEFAVKLKIDLANRETSIFSYREDPIVYEIHPTKSFISGGSTITGVGKNLNSVSVPRMVINVHEAGRNFTVACQHRSNSEIICCTTPSLQQLNLQLPLKTKAFFMLDGILSKYFDLIYVHNPVFKPFEKPVMISMGNENVLEIKGNDIDPEAVKGEVLKVGNKSCENIHLHSEAVLCTVPNDLLKLNSELNIEWKQAISSTVLGKVIVQPDQNFTGLIAGVVSISTALLLLLGFFLWLKKRKQIKDLGSELVRYDARVHTPHLDRLVSARSVSPTTEMVSNESVDYRATFPEDQFPNSSQNGSCRQVQYPLTDMSPILTSGDSDISSPLLQNTVHIDLSALNPELVQAVQHVVIGPSSLIVHFNEVIGRGHFGCVYHGTLLDNDGKKIHCAVKSLNRITDIGEVSQFLTEGIIMKDFSHPNVLSLLGICLRSEGSPLVVLPYMKHGDLRNFIRNETHNPTVKDLIGFGLQVAKGMKYLASKKFVHRDLAARNCMLDEKFTVKVADFGLARDMYDKEYYSVHNKTGAKLPVKWMALESLQTQKFTTKSDVWSFGVLLWELMTRGAPPYPDVNTFDITVYLLQGRRLLQPEYCPDPLYEVMLKCWHPKAEMRPSFSELVSRISAIFSTFIGEHYVHVNATYVNVKCVAPYPSLLSSEDNADDEVDTRPASFWETS
Work on B1 yielded a Kd [1] of 27 nM, a Kd [2] of 143 nM and a Kd [3] of 59 nM. The Kd [4] was 293 nM, the Kd [5] was 1820 nM and the Kd [6] was 272 nM.
